According to patent publication EP2773641B1, “BIARYL ETHER SULFONAMIDES AND THEIR USE AS THERAPEUTIC AGENTS” (Xenon Pharmaceuticals Inc., priority 2011, dated 2013):
pIC50: −log10 of the molar value. Read-outs that look alike come from different tables or passages of the source.

Sequences of proteins named here, by UniProt entry; tags and fusion partners are left off. Residues count along the entry.
UniProt Q15858, 1-1977 isoform Q15858-3: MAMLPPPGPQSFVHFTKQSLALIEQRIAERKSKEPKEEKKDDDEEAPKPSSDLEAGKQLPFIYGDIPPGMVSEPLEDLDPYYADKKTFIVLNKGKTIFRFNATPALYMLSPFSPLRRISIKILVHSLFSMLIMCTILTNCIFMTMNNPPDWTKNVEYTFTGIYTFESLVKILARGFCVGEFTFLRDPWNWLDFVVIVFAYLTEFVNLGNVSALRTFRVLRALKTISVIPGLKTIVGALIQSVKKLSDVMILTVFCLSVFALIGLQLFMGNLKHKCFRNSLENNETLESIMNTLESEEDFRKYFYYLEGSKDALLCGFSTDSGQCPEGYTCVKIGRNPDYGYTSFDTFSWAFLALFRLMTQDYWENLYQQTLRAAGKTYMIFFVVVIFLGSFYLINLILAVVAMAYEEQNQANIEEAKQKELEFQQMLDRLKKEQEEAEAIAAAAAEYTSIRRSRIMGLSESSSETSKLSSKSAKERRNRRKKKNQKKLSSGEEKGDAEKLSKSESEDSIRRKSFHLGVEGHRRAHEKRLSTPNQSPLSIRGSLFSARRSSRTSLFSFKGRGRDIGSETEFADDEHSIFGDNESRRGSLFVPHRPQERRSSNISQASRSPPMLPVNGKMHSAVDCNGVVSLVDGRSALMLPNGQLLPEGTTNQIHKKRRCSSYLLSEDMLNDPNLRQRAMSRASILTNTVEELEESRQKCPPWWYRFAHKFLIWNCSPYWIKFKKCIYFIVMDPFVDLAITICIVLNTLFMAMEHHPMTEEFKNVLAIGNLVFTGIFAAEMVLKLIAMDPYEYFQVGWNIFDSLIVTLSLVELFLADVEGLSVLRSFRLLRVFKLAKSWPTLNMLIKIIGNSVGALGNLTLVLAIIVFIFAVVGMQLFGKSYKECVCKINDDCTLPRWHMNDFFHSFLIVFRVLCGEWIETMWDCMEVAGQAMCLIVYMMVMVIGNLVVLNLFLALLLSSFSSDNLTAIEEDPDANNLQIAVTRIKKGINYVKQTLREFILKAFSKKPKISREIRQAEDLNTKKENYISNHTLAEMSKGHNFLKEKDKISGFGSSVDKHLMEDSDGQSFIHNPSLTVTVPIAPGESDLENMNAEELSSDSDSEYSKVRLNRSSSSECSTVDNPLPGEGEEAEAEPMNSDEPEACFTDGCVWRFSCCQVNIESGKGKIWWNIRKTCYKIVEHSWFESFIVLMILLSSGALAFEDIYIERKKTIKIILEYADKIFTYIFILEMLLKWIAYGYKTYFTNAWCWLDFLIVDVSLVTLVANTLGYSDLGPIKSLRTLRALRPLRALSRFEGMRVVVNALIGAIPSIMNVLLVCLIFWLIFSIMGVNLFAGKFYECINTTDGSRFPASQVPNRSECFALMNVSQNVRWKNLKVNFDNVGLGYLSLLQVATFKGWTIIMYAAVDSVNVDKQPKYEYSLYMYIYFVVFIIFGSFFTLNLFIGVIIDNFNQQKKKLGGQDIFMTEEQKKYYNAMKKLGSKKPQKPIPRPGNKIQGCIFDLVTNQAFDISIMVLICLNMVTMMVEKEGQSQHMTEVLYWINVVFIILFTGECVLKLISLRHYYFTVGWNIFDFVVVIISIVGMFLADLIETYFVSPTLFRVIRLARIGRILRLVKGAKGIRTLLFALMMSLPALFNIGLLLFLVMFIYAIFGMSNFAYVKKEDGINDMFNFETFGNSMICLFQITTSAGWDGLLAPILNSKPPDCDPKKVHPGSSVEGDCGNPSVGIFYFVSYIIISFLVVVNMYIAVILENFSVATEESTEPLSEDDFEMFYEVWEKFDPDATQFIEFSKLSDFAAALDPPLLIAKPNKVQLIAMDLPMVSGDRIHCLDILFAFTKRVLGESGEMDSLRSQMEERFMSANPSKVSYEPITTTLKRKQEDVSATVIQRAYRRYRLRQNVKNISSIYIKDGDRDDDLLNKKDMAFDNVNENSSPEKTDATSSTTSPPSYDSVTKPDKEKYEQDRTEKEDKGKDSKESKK

Molecular target: T1, Nav1.7 (Homo sapiens, UniProt Q15858)
T1 construct: permanently transfected with an expression vector containing the full-length cDNA coding for the desired human sodium channel α-subunit; expressed in transfected cells
Experiment: Patch voltage clamp electrophysiology assay, block of the inactivated state of Nav1.7
Type: cell-based
Conditions: affinity for the inactivated state, HEK-293 cells stably expressing human Nav1.7 with β1 subunit, held at -60 mV
Protocol: The following patch voltage clamp electrophysiology studies were performed on representative compounds of the invention using human embryonic kidney cells (HEK), permanently transfected with an expression vector containing the full-length cDNA coding for the desired human sodium channel α-subunit, grown in culture media containing 10% FBS, 1% PSG, and 0.5 mg/mL G418 at 37 °C with 5% CO2. […] Nav1.7 and Nav1.5 cDNAs (NM_002977 and AC137587; SCN5A, respectively) were stably expressed in HEK-293 cells. The β1 subunit was coexpressed only in the Nav1.7 cell line.
Sodium currents were measured using the patch clamp technique in the whole-cell configuration using either a PatchXpress automated voltage clamp or manually using an Axopatch 200B (Axon Instruments) or Model 2400 (A-M systems) amplifier. […] The pipette was filled with a solution comprised of: 5 mM NaCl, 10 mM CsCl, 120 mM CsF, 0.1 mM CaCl2, 2 mM MgCl2, 10 mM HEPES, 10 mM EGTA; and adjusted to pH 7.2 with CsOH. […] Control sodium currents were measured in 0.5% DMSO. […]
The membrane potential was maintained at a voltage where inactivation of the channel is complete (which was -60 mV for both Nav1.7 and Nav1.5). The voltage is then stepped back to a very negative (Vhold = -150mV) voltage for 20 ms and then a test pulse is applied to quantify the compound block. […]

Nc1nc2cc(-c3cc(Cl)ccc3Oc3cc(F)c(S(=O)(=O)Nc4ncns4)cc3F)ccc2o1 [Example 56, 4-(2-(2-aminobenzo[d]oxazol-5-yl)-4-chlorophenoxy)-2,5-difluoro-N-(1,2,4-thiadiazol-5-yl)benzenesulfonamide] was tested, and the pIC50 (IC50 class, read-out: Nav1.7) was > 7.00 and the pIC50 (read-out: Nav1.7 IC50) was 8.85.
